Experimental data published in patent EP4745124A1, “NAPHTHALIMIDE-BASED CORONAVIRUS PAPAIN-LIKE PROTEASE INHIBITOR” (Guangzhou National Laboratory, priority 2023, dated 2025).

Target: T1, SARS-CoV-2 PL^Pro (Severe acute respiratory syndrome coronavirus 2, UniProt P0DTD1)
T1 construct: SARS-CoV-2 PL^Pro catalytic domain (746-1060); made in house
Experiment: biochemical

Q: Which IC50 does the source give for `Cc1ccc(N2CCN(C)CC2)cc1C(=O)NC1(c2ccc3c4c(cccc24)C(=O)N3C)CC1` [Compound P1, 2-Methyl-N-(1-(1-methyl-2-oxo-1,2-dihydrobenzo[cd]indol-6-yl)cyclopropyl)-5-(4-methylpiperazin-1-yl)benzamide] here?
A: Its IC50 is 40 to 100 nM.
